Molecules are shown by their SMILES. Entries after “also recorded” stand apart in the source; their conditions may differ.

Results on 1 molecule are retold here after patent US10034922B2, “Peptide having angiogenesis inhibitory activity and composition containing same” (GemVax & KAEL Co., Ltd., priority 2013, dated 2018).

The subject of series [1] is Human umbilical vein endothelial cell. In words: Vascular endothelial cell proliferation stimulated by EGM-2 media. In kind it is cell-based. The conditions noted are these: PEP1 0.05, 0.5, 5 μM, EGM-2 media stimulation. On the procedure:
In this example, the Human umbilical vein endothelial cell was incubated in the EGM-2 media and only the 2 to 5 cycles of the vascular endothelial cell was selected for the experiment.
(§1) The vascular endothelial cells were plated to a 6-well plate (BD Biosciences, Bedford, Mass., USA) of the 1×10^5 cells/well. The cells were synchronized by the basic EBM-2 media (Lonza) which has no serum and angiogenesis factors, treated by PEP1 at each concentration (0.05, 0.5, 5 μM) and stimulated by the EGM-2 media, in order to observe the cell proliferation inhibition effect.
(§2) For detecting the cell proliferation, by using the trypan blue staining solution (Invitrogen, Carlsbad, Calif., USA), the cells were directly counted in the microscope (×100), and the cell viability was analyzed by using viability assay kit (Merck Millipore Inc.) with Muse™ analyzer.

For series [2], the system named is Human umbilical vein endothelial cell induced by VEGF-A. In words: Vascular endothelial cell proliferation by VEGF-A. In kind it is cell-based. The conditions noted are these: PEP1 0.05, 0.5, 5 μM, VEGF-A 10 ng/mL, 24 hours. On the procedure: The vascular endothelial cells were plated to a 6-well plate (BD Biosciences, Bedford, Mass., USA) of the 1×10^5 cells/well. The cells were synchronized to the G1/G0 phase by the basic EBM-2 media (Lonza) which has no serum and angiogenesis factors, treated by the PEP1 at each concentration (0.05, 0.5, 5 μM) and stimulated by the VEGF-A (10 ng/mL) for 24 hours, in order to observe the cell proliferation inhibition effect.
as §2

The test system of a further series is VEGF. In words: VEGF secretion by cancer cells (ELISA). In kind it is cell-based, human. The settings on record: MCF7 and HeLa cells, induced hypoxia, PEP1 20 μM, 24 hours. On the procedure: VEGF secretion in cancer cells was confirmed by ELISA (Enzyme-linked immunosorbent assay). MCF7 and HeLa cells were incubated in the hypoxia circumstance or the normoxia circumstance after adding PEP1 or vehicle during 24 hours. The amount of VEGF in the cell supernant was confirmed by human VEGF immune analysis kit (R&D Systems, USA) following the instruction of the manufacturer. For analyzing the concentration of HSP70 and HSP90 in blood, the blood was collected from the mouse model having tumor. After the preparation of the serum, the concentration of HSP70 and HSP90 in blood was confirmed by the immune analysis kit for HSP70 (R&D systems, USA) and HSP90 (Cusabio Biotech co., Ltd, DE, USA).

For another series, the system named is HIF-1α. In words: HIF-1α production in hypoxia-induced cancer cells (immunoblotting). The settings on record: PEP1 20 μM, vs mock treated control. In kind it is cell-based, human. Here is the method: In hypoxia circumstance, for verifying the effect of PEP1 to the level of HSP, MCF7 and HeLa cells were treated with 20 μM PEP1, and incubated in the hypoxia circumstance and the normoxia circumstance. By using BBL GasPak (Becton Dickinson) which lows the oxygen to non-detective level in 90 minutes by catalytic reaction, the anoxia circumstance was induced. The incubation time was in a range of 2 to 24 hours. As mentioned above, the cells were collected and immunoblotted by using α-HSP70, α-HSP90, α-HIF-1α, or α-GAPDH antibodies. The α-GAPDH, for the protein quantification, was used for the normalization of the amount of HSP70/90 by the amount of GAPDH.
After treating the starvation for 2 hours by adding the OPTI-MEM media, same as the shown figure, the cells were treated by the PEP1 at the different concentrations, by the scrambled peptides, […] (1 μM) or KNK437 (1 μM). […] By using Bradford Protein Assay (Bio-Rad, USA), the protein concentration was quantified, and the samples were treated by SDS-PAGE and immunoblotting with α-HSP70 (sc-32239 and sc-66048, Santa Cruz, Calif., USA), α-HSP90 (ab1429, abcam, USA), α-GRP78 (sc-13968), α-HIF-1a (sc-10790) or α-GAPDH (sc-25778) antibodies. The immune reactive band was visualized by the intensive chemiluminescence kit (iNtRoN Biotechnology, INC, Korea), and analyzed by ImageQuant™ LAS-4000 (GE Healthcare Life Science, NJ, US).
A general note: A western blot detects proteins with antibodies after separation by electrophoresis.

In series [3] the test system is Human umbilical vein endothelial cell. The experiment in a line: Vascular endothelial cell viability, EGM-2 media. In kind it is cell-based. The conditions noted are these: PEP1 0.05, 0.5, 5 μM, EGM-2 media stimulation. Here is the method: as §1, §2
The subject of a further series is HSP90. In words: HSP90 in tumor lysates (immunoblotting). The settings on record: all three PEP1 treated tumor samples. It is filed as in vivo, mouse. Here is the method:
(§3) 7 week-old BALB/c athymic mice (Nu/Nu) (10 mice per group; n=20, female, Orient Bio Co. Gyunggido, Korea) were divided into two groups randomly after the subcutaneous injection of murine colon carcinoma MC38 (5×10^5 cells/ml in 200 μl PBS per site). PEP1 (50 μg/kg in 100 μl 0.9% NaCl solution) or PBS were injected into the mice once per 2 days. When the size of tumor reaches 10 mm, the PEP1 and PBS were injected to the inside of tumor. The size of tumor was measured in once per 2 days, and the volume of tumor was calculated following equation; volume (mm3)=((width2×length)/2). All experiments were approved by the Institute for Experimental Animals (College of Medicine, Seoul National University at Seoul, Korea).
Similar to the PCNA staining method, by using immunohistochemical staining, HSP70 and HSP90 proteins expression in tumor were evaluated. The antibodies to the heat shock proteins (HSP70; sc-7298, HSP90; ab1429) was used as the first antibodies. HSP70 and HSP90 proteins expression by tumors was evaluated by immunoblotting using tumor lysate. After freezing by liquid oxygen, the tumor was crashed by the mortar, and homogenized by extraction buffer (20 mM HEPES, pH7.5, 100 mM NaCl, 0.05% Triton X-100, 1 mM DTT, 0.5 mM sodium orthovanadate, 1 mM EDTA, 0.5 mM PMSF, 10 μg/ml aprotinin, 5 μg/ml leupeptin, 2 μg/ml pepstatin). […]

The subject of series [4] is murine colon carcinoma MC38. The experiment in a line: Tumor growth in vivo, MC38 cells in BALB/c athymic (Nu/Nu) mice. The arrangement: species or system mouse. The conditions noted are these: PEP1 50 μg/kg once per 2 days. Here is the method:
as §3

For the molecule `CC[C@H](C)[C@H](NC(=O)[C@H](Cc1ccccc1)NC(=O)[C@H](CCCNC(=N)N)NC(=O)[C@H](CC(C)C)NC(=O)[C@H](CCCNC(=N)N)NC(=O)[C@H](CO)NC(=O)[C@@H](NC(=O)[C@H](CC(C)C)NC(=O)[C@H](CC(C)C)NC(=O)[C@H](C)NC(=O)[C@@H]1CCCN1C(=O)[C@H](CCCNC(=N)N)NC(=O)[C@H](C)NC(=O)[C@@H](N)CCC(=O)O)[C@@H](C)O)C(=O)N1CCC[C@H]1C(=O)N[C@@H](CCCCN)C(=O)O` [PEP1, EARPALLTSRLRFIPK], the “vascular endothelial cell proliferation” value in series [1] is reported as “inhibited in a concentration-dependent way”. Also, the “vascular endothelial cell proliferation by VEGF-A” value in series [2] is “in a concentration dependent way inhibited”. In addition, the “amount of the secreted VEGF” value in the series on VEGF is on record as “decreased”. For the same molecule, the “expression of HIF-1α” value with HIF-1α (HeLa cells) and with HIF-1α (MCF7 cells) was “very decreased” in each case. Further, the cell survival rate entry in series [3] is “did not affect”. The “HSP90 protein level in tumor” value with HSP90 was “decreases; also recorded: scarcely found”. For the same molecule, the “average amount of tumor of the control group relative to PEP1 treated group” value in series [4] (18th day after injection) was 3 times. Also, the “amount of tumor, PEP1 treated group vs control group” value in series [4] (measured every 2 days) is reported as “significant difference”. The “tumor weight of the control group compared with PEP1 treated group” value in series [4] (after sacrifice) is on record as “much heavier”.
